In patent US8932558B2, “Multi-subunit biological complexes for treatment of plaque-associated diseases” (Plaxgen Inc, priority 2007, dated 2015):

System: CP aggregates
Test: Binding of proteins with calcium containing aggregates
Conditions: 2 μg protein, 37° C., 1 hr
Experimental: The Proteins used for binding with the aggregates are diluted first in the PBS to make 1 mg/ml concentration and then stored at −20° C. as 50 μl aliquots. These samples are then thawed on ice and centrifuged (10,000 rpm, 10 min, 4° C.) to remove any precipitation and the supernatant containing only the soluble proteins are used for binding studies. To start with, for identification of proteins binding with calcium containing aggregates, a number of proteins are screened individually with the aggregates. Binding experiment is performed in 100 μl reaction (50 μl PBS buffer and 50 μl of individual aggregates) containing 2 μg of protein and the mixtures are incubated at 37° C. for 1 hr. For control experiments, protein (2 μg) is mixed in 100 μl PBS without aggregates. After the binding, the mixture is centrifuged (2500 rpm, 2 min, 20° C.) and the pellet is washed four times with 200 μl PBST (Tween 20, 0.05%). After each wash the supernatant is discarded and the complexes are transferred to a new microfuge tube to avoid any carry-over of the proteins. […] Finally, the solublized samples are used for protein quantitation using protein estimation kit (Pierce, Ill.) and the data are used in the Microsoft Excel program to generate Graph 1 (FIG. 4). […]

Binding with the CP aggregates: detectable binding
Substance: HSA: human serum albumin
